The series is described as follows: PK parameters of cabozantinib and measured metabolites in human subjects. The format is in vivo. To be noted: plasma, oral, 140 mg/day, read-out: t1/2, apparent terminal elimination half-life (converted).

As to `COc1cc2nccc(Oc3ccc(NC(=O)C4(C(=O)Nc5ccc(F)cc5)CC4)cc3)c2cc1OC` [Cabozantinib, N-(4-{[6,7-bis(methyloxy)quinolin-4-yl]oxy}phenyl)-N′-(4-fluorophenyl)cyclopropane-1,1-dicarboxamide, reference compound], the half-life was 102 h.

Source of the values: patent publication US20200163954A1 (Exelixis, Inc., priority 2014, published 2020).
